Results taken from patent US8053197B2, “Methods for detecting and treating autoimmune disorders” (Oregon Health & Science University, priority 2004, dated 2011).

Columns and labels:
[1] = test system: CD4+CD25+ Treg cells; test: Reversal of Treg activity of bead-sorted CD4+CD25+ T cells from PBMC; type: cell-based, human
Procedure: All suppression assays were performed in 96-well round bottom plates (Becton Dickinson, Franklin Lakes, N.J.) in a final volume of 200 μl/well of 1% type AB human serum complete media (Bio Whittaker, Walkersville, Md.). Prior to assay setup, 18 wells each in the 96 well plates were coated with 100 μl of a final concentration of 2.0 μg/ml anti-CD3+ anti-CD28 mAbs, or 1.0, 0.5, and 0.1 μg/ml anti-CD3 mAb only (Caltag Labs, Burlingame, Calif.), and the plates were incubated overnight at 4° C. All wells were washed before assay setup. […] The cells were then harvested on glass fiber filters and assessed for uptake of the labeled thymidine by liquid scintillation. Percent suppression was determined at each mixed cell ratio compared to responses of CD4+CD25+ (suppressor cells) and CD4+CD25− T cells (indicator T cells) alone as follows:
To develop a standard procedure for assessing inhibitory activity of CD4+CD25+ Treg cells in vitro, CD4+CD25+ T cells isolated using a FACSVantage cell sorter (Becton Dickinson, Franidin Lakes, N.J.) versus magnetic beads were compared. […] The cells were stimulated with plate-bound anti-CD3+ anti-CD28 mAbs for 6 days at an optimal stimulatory concentration (0.2 μg/ml) in the absence of additional APC, and after 6 days, were assessed for proliferation responses using 3H-Tdy uptake. […]

[2] = test system: TCR reactive T cell lines; test: Reversal of Treg activity of TCR reactive T cell lines; type: cell-based, human
Text: To further test the association between TCR reactivity and Treg function, T cell lines specific for TCR determinants (Pool #1 peptides, CDR2 peptides from BV5S2, BV6S5, and BV13S1, or a soluble single chain AV23/BV6 protein) or control antigens (TT, ConA, or MOG peptide) were isolated and evaluated for suppressive activity.

[3] = test system: multiple sclerosis; conditions: cited from earlier work

## IL-2: cytokine added to the Treg suppression assay
[1]
  reversal of Treg activity: completely reversed
[2]
  reversal of Treg activity: reversed completely

B1: Avonex®: interferon-beta 1a produced in Chinese Hamster Ovary cells, marketed by Biogen (protein, UniProt P01574 22-187, looked up)
Interferon beta: MSYNLLGFLQRSSNFQCQKLLWQLNGRLEYCLKDRMNFDIPEEIKQLQQFQKEDAALTIYEMLQNIFAIFRQDSSSTGWNETIVENLLANVYHQINHLKTVLEEKLEKEDFTRGKLMSSLHLKRYYGRILHYLKAKEYSHCAWTIVRVEILRNFYFINRLTGYLRN
[3]; human, in vivo
  subjects with improved Expanded Disability Status Scale (EDSS) scores: approximately 22%
[3]; subjects administered the drug for two years
  decrease in the number of gadolinium (Gd)-enhanced lesions: up to 13%

B2: Rebif®: interferon-beta 1a marketed by Serono, subcutaneous injection (protein, UniProt P01574 22-187, looked up)
Interferon beta: B1 Interferon beta
[3]; according to Samkoff 2002
  reduction of relapse rates: 33%

B3: Betaseron®: interferon-beta 1b made in Escherichia coli, serine for cysteine at position 17 (protein, UniProt P01574 22-187, looked up)
Interferon beta: B1 Interferon beta
[3]; according to Physicians' Desk Reference (1996)
  reduction of exacerbation rate: about 31%
